2 compounds from patent publication US8907092B2, “Inhibitors of IAP” (Genentech, Inc., priority 2007, dated 2014) can be followed below.

Protein sequences, listed by entry. Tags and fused reporters are not part of them. Chains listed by the source or under a name are the forms on record and can include a tag or linker. Residues count along the entry.
UniProt Q96CA5, 63-159 with tags or gaps S150G limits assumed: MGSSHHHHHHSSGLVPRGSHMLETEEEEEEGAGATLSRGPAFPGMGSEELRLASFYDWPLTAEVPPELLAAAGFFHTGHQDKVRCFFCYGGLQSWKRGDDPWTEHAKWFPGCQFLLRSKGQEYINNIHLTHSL

The target of the assay is MLXBIR3SG (Homo sapiens, UniProt Q96CA5, S150G). As to the kind of experiment: Fluorescence Polarization Peptide Binding Assay. Conditions: competition with 5 nM AVP-diPhe-FAM probe, MLXBIR3SG at 30 nM. Here is the method:
In the following experiments was used a chimeric BIR domain referred to as MLXBIR3SG in which 11 of 110 residues correspond to those found in XIAP-BIR3, while the remainder correspond to ML-IAP-BIR. […] The improved caspase-9 inhibition of the chimeric BIR domain MLXBIR3SG has been correlated with increased inhibition of doxorubicin-induced apoptosis when transfected into MCF7 cells. […]
The reactions were read after an incubation time of 10 minutes at room temperature with standard cut-off filters for the fluorescein fluorophore (λex=485 nm; λem=530 nm) in 96-well black HE96 plates (Molecular Devices Corp.). Fluorescence values were plotted as a function of the protein concentration, and the IC50s were obtained by fitting the data to a 4-parameter equation using Kaleidograph software (Synergy software, Reading, Pa.). […] Samples were read after a 10-minute incubation. Fluorescence polarization values were plotted as a function of the antagonist concentration, and the IC50 values were obtained by fitting the data to a 4-parameter equation using Kaleidograph software (Synergy software, Reading, Pa.) Inhibition constants (Ki) for the antagonists were determined from the IC50 values.
A general note: In fluorescence polarisation assays a small probe gives low polarisation when free and higher when bound to something large.

A word on the IC50: it is the concentration that gives 50% inhibition. With `CCCC(=O)Nc1nc(-c2ccccc2)c(NC(=O)[C@@H]2CCCN2C(=O)[C@@H](NC(=O)[C@H](C)NC)C2CCN(C(=O)NCCCCNC(=O)N3CCC([C@H](NC(=O)[C@H](C)NC)C(=O)N4CCC[C@H]4C(=O)Nc4sc(NC(=O)CCC)nc4-c4ccccc4)CC3)CC2)s1`, the IC50 turned out to be 231 nM.

With `CCCC(=O)Nc1nc(-c2ccccc2)c(NC(=O)[C@@H]2CCCN2C(=O)[C@@H](NC(=O)[C@H](C)NC)C2CCN(C(=O)NCCCCCCNC(=O)N3CCC([C@H](NC(=O)[C@H](C)NC)C(=O)N4CCC[C@H]4C(=O)Nc4sc(NC(=O)CCC)nc4-c4ccccc4)CC3)CC2)s1`, the concentration for half-maximal inhibition (IC50) turned out to be 279 nM.
